Test [1] has as its target T1, human HCN2 CNBD L670G - L671G - D698A (Homo sapiens, UniProt Q9UL51, D698A/L670G/L671G). The test can be described thus: biochemical.
The target in test [2] is T1, human HCN2 CNBD L670G - L671G - D698A. The following applies: cAMP titrant.

Sequences of proteins named here, by UniProt entry; tags and fusion partners are left off. Residues count along the entry.
UniProt Q9UL51, 521-706 L670G/L671G/D698A: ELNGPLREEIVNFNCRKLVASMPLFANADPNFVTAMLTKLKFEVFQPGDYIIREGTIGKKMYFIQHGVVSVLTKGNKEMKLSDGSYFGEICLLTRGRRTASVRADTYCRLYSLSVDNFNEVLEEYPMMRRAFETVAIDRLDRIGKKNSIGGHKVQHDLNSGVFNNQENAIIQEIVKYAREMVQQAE

Structures are written as SMILES. Values joined by “and” are separate entries in the source; they are usually repeats but may differ in a detail not shown here. Equal values may be shown once.

As for `Nc1ncnc2c1ncn2[C@@H]1O[C@@H]2COP(=O)(O)O[C@H]2[C@H]1O` [cAMP, Adenosine 3′,5′-cyclic monophosphate], the Kd in test [1] (KD of individual experiments (source data Fig. 7c), cAMP titrant, unit inferred) is 6.67 µM and 6.53 µM and 7.04 µM; in test [1] (KD, cAMP titrated into 20 µM CNBD, 25 °C, mean ± SEM, n = 3), 6.7 ± 0.2 µM; in test [1] (KD, representative sample (Fig. 7b), cAMP titrant, single ITC experiment) it was 6.6 µM. Besides, the “stoichiometry (N)” value in test [2] (mean ± SEM, n = 3) came to 0.9 ± 0.1. Further, the “N, representative sample (Fig. 7b)” value in test [2] (single ITC experiment) came to 0.9.

Source of the values: article PMC10825183 (Nature Communications, 2024).
